Experimental data: patent publication US8258155B2, “Quinine sulfate/bisulfate solid complex; methods of making; and methods of use thereof” (Mutual Pharmaceutical Company, Inc., priority 2008, dated 2012)

Substance	water solubility at room temperature
quinine bisulfate tartaric acid co-crystal	about 200 milligrams per milliliter
quinine sulfate acetic acid co-crystal monohydrate (2quinine.H2SO4.CH3COOH.H2O)	about 2 milligrams per milliliter
